## Measured affinities in a library of Ab-14 heavy chain variants

From the AlphaSeq antibody data of Li et al. 2023 (doi:10.1038/s41467-023-39022-2), copy in the FLAb collection.

Antigen: PDVDLGDISGINAS, a 14-residue peptide of the SARS-CoV-2 spike HR2 region.

Parent scFv Ab-14: VH joined to VL by a (GGGGS)3 linker. Changes lie in the heavy chain CDRs alone.
VH: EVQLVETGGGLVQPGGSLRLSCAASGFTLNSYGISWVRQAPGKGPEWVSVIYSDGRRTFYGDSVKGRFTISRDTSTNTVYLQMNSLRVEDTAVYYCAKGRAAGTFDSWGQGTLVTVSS
VL: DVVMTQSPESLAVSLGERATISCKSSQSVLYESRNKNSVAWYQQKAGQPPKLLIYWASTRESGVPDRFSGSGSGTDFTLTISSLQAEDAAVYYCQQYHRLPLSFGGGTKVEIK

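The variants were designed computationally from a first round of random CDR variants and then made and measured. Group labels follow the data file (Ctrl: baseline library sampled from a position-specific scoring matrix, with some repeated check sequences; GP: Gaussian process model; Gibbs: Gibbs sampling; a sequence that several methods proposed may carry one label only). The scFvs were displayed on barcoded MATa yeast, the peptide on MATalpha yeast. The frequency of each diploid, read from paired DNA barcodes, reflects how well the two displayed proteins bind. A regression on co-assayed BCL2-family reference pairs converts the normalised counts of each replicate to an apparent Kd. Mating was done six times.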

Each variant's VH is given in full.
Numbers give log10(Kd / nM), so 0 is 1 nM and 3 is 1 µM. Smaller is tighter.
Replicates are averaged; those with no signal do not enter the mean.
"n.d." marks a missing value. The strain was present, yet no cells mated with the target were sequenced in that replicate, which points to weak or no binding.
Values of this round are not directly comparable with the first-round values of the same sequences.
In the paper, a design with two or fewer of six values counts as a poor binder.
The parent sequence was in this pool as ten entries: three were never detected, three once, and four in most replicates, with averages from 0.34 to 2.37.
Where one sequence has several entries in the source, the replicates are listed entry by entry, parted by semicolons.
As a blank, each scFv also met three strains without target: over all heavy chain designs, 1% of these pairings were detected, typically at 2.08 and seldom below 0.84. Also given: how often the same scFv was detected with the empty control strains, with their mean in brackets.

| VH | group | log10 Kd (nM) by replicate | mean log10 Kd (nM) | signal with controls |
|---|---|---|---|---|
| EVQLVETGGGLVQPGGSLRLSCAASGFTLNSYGISWVRQAPGKGPEWVSVIYSDGIRTFYGDSVKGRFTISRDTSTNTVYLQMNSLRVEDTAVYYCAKGREAGTFDSWGQGTLVTVSS | Ctrl | 0.31 / -0.29 / -0.19 / -0.47 / -0.16 / -0.16 | -0.16 | 0/18 |
| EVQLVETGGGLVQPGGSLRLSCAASGFTLNSYGISWVRQAPGKGPEWVSVIYSDGRKTFYGDSVKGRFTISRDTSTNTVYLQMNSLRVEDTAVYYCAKGRAALTVDSWGQGTLVTVSS | Ctrl | n.d. / n.d. / n.d. / n.d. / n.d. / n.d. | n.d. | 1/18 (0.50) |
| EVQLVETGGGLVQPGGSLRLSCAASGFTLNSYGISWVRQAPGKGPEWVSVIYSDGKRTSYQDSVKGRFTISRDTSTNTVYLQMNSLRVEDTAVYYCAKGHAAGTFDSWGQGTLVTVSS | Ctrl | n.d. / n.d. / 0.91 / 0.44 / n.d. / n.d. | 0.67 | 0/18 |
| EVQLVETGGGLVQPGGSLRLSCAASGFTLNSYGISWVRQAPGKGPEWVSVIYSDGIRTFYGDSVKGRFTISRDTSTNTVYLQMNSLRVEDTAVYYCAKGRAAGTSKKWGQGTLVTVSS | Ctrl | n.d. / n.d. / n.d. / n.d. / n.d. / n.d. | n.d. | 0/18 |
| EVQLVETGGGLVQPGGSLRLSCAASGFTLNSYGISWVRQAPGKGPEWVSVIYSDGERTFYGDSVKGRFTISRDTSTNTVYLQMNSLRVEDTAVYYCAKGRLAGTFDSWGQGTLVTVSS | Ctrl | 0.81 / 0.94 / 0.17 / 0.23 / 1.14 / 0.22 | 0.58 | 0/18 |
| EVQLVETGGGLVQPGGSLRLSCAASGFTLNSYGISWVRQAPGKGPEWVSVIYSDGRRTFYGDSVKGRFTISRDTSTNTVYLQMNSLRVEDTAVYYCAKGRNAGTFTSWGQGTLVTVSS | Ctrl | n.d. / n.d. / n.d. / n.d. / n.d. / n.d. | n.d. | 0/18 |
| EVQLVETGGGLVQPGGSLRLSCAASGFSLNSYGISWVRQAPGKGPEWVSVIYSDGIRTFYSDSVKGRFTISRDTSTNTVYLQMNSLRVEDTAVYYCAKGRAAGTFDSWGQGTLVTVSS | Ctrl | 0.08 / -0.14 / -0.10 / -0.05 / -0.08 / -0.01 | -0.05 | 0/18 |
| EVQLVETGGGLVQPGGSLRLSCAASGFMLTSYGISWVRQAPGKGPEWVSVIYSDGRRTFYGDSVKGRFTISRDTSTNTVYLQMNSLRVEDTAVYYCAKGKAAGTFDSWGQGTLVTVSS | Ctrl | 2.20 / n.d. / n.d. / 2.87 / n.d. / n.d. | 2.53 | 0/18 |
| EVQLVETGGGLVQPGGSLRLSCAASGFELNSYGISWVRQAPGKGPEWVSVIYSDGRRTFYGDSVKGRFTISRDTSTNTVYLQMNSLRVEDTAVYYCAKGHAAGTFDQWGQGTLVTVSS | Ctrl | n.d. / n.d. / n.d. / n.d. / n.d. / n.d. | n.d. | 0/18 |
| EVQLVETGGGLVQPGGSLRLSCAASGFTLDSYGVSWVRQAPGKGPEWVSVIYSDGRRTFYTDQVKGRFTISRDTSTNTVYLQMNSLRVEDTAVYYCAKGRASGTFDSWGQGTLVTVSS | Ctrl | n.d. / n.d. / n.d. / n.d. / n.d. / n.d. | n.d. | 0/18 |
| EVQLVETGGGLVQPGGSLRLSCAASGFTLNSYGISWVRQAPGKGPEWVSVIYSDGRRTFYGDSVKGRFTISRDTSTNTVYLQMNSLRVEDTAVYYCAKGVAAGTFKSWGQGTLVTVSS | Ctrl | n.d. / n.d. / n.d. / n.d. / n.d. / n.d. | n.d. | 1/18 (1.72) |
| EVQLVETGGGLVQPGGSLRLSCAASGFGLNSYGISWVRQAPGKGPEWVSVIYSDGKRTFYGDSVKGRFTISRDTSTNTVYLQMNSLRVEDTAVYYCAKGRAAGTFDSWGQGTLVTVSS | Ctrl | n.d. / n.d. / n.d. / n.d. / n.d. / n.d. | n.d. | 0/18 |
| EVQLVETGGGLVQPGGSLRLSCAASGFTLNDYGISWVRQAPGKGPEWVSVIYSDGRRTFYGDSVKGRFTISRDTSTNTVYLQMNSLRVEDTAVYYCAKGTARGAFDTWGQGTLVTVSS | Ctrl | 2.32 / 2.18 / n.d. / 2.26 / 3.24 / 3.13 | 2.63 | 1/18 (2.65) |
| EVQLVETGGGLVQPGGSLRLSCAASGFTLSSYGISWVRQAPGKGPEWVSVIYSDGRRTFYADSVAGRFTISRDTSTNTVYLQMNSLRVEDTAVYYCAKGRAAGTFDSWGQGTLVTVSS | Ctrl | 1.04 / n.d. / n.d. / 1.18 / 0.92 / 0.73 | 0.97 | 0/18 |
| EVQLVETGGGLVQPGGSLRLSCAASHFTLNSYGISWVRQAPGKGPEWVSVIYSDGRRTFYDDSVKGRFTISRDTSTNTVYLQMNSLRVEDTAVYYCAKGRAKGTFDSWGQGTLVTVSS | Ctrl | n.d. / n.d. / n.d. / n.d. / 2.01 / n.d. | 2.01 | 1/18 (1.06) |
| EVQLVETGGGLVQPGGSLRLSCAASGFSLNSYGISWVRQAPGKGPEWVSVIYSDGRRTFYGDDVKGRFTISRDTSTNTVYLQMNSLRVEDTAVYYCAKGRDAGTPDSWGQGTLVTVSS | Ctrl | n.d. / n.d. / n.d. / n.d. / n.d. / n.d. | n.d. | 0/18 |
| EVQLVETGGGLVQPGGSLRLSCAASGFTLNSYGISWVRQAPGKGPEWVSVIYSDGVRTAYGDSVKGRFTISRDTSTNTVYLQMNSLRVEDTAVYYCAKGRAAGFFDSWGQGTLVTVSS | Ctrl | n.d. / n.d. / n.d. / 2.80 / n.d. / n.d. | 2.80 | 0/18 |
| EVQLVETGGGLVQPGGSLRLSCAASGFTLNSYGISWVRQAPGKGPEWVSVIYSDGRRTYYGDSVKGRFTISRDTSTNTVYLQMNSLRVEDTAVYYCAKGRLAGLFDSWGQGTLVTVSS | Ctrl | n.d. / n.d. / n.d. / n.d. / n.d. / n.d. | n.d. | 0/18 |
| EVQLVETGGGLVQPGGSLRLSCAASGFTLNSYGISWVRQAPGKGPEWVSVIYSDGRRTFYGDSVKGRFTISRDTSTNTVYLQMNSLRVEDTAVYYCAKGRAADRFDSWGQGTLVTVSS | Ctrl | 0.70 / 1.38 / n.d. / n.d. / n.d. / n.d. | 1.04 | 0/18 |
| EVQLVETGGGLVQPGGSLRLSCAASGFHLNSYGISWVRQAPGKGPEWVSVIYSDGRRTFYGDSVKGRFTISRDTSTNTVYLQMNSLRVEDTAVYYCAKGRLAGTFDSWGQGTLVTVSS | Ctrl+GP_Gibbs | 1.42 / 1.51 / 1.49 / 2.01 / n.d. / 1.21; n.d. / n.d. / n.d. / 1.08 / n.d. / n.d. | 1.45 | 1/36 (1.76) |
| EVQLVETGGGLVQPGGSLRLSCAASGFSLNSYGIQWVRQAPGKGPEWVSVDYSDGRRTAYGDSVKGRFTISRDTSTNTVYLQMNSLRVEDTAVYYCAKGRAAGTFDSWGQGTLVTVSS | Ctrl | n.d. / n.d. / n.d. / n.d. / n.d. / n.d. | n.d. | 0/18 |
| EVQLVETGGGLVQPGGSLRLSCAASGFSMNSYGISWVRQAPGKGPEWVSVIYSDGRRTTYSDSVKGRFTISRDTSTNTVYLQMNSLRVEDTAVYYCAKGRAAGTFWEWGQGTLVTVSS | Ctrl | n.d. / n.d. / n.d. / n.d. / n.d. / n.d. | n.d. | 0/18 |
| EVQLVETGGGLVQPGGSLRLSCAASGFTLNSYGISWVRQAPGKGPEWVSVIYSDGRRTFYTDSVKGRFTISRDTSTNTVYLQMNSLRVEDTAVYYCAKGRAAGEFDSWGQGTLVTVSS | Ctrl | n.d. / n.d. / n.d. / n.d. / n.d. / n.d. | n.d. | 0/18 |
| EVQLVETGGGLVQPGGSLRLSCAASGFTLNSYGISWVRQAPGKGPEWVSVIYSDGRRTFYDDSVKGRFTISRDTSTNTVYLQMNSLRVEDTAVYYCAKGRVSGTFDSWGQGTLVTVSS | Ctrl | 1.46 / 1.07 / 1.08 / 1.17 / 1.36 / 0.96 | 1.18 | 0/18 |

Top 4 of the variants detected in all replicates, tightest first:

VH,group,log10 Kd (nM) by replicate,mean log10 Kd (nM),signal with controls
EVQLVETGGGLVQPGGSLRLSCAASGFTLNSYGISWVRQAPGKGPEWVSVIYSDGIRTFYGDSVKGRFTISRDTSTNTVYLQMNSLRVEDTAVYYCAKGREAGTFDSWGQGTLVTVSS,Ctrl,0.31 / -0.29 / -0.19 / -0.47 / -0.16 / -0.16,-0.16,0/18
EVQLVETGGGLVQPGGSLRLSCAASGFSLNSYGISWVRQAPGKGPEWVSVIYSDGIRTFYSDSVKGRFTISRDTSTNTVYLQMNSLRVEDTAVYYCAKGRAAGTFDSWGQGTLVTVSS,Ctrl,0.08 / -0.14 / -0.10 / -0.05 / -0.08 / -0.01,-0.05,0/18
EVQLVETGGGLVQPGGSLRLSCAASGFTLNSYGISWVRQAPGKGPEWVSVIYSDGERTFYGDSVKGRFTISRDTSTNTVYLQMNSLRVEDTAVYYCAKGRLAGTFDSWGQGTLVTVSS,Ctrl,0.81 / 0.94 / 0.17 / 0.23 / 1.14 / 0.22,0.58,0/18
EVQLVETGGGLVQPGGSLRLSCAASGFTLNSYGISWVRQAPGKGPEWVSVIYSDGRRTFYDDSVKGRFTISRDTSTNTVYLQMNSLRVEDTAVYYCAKGRVSGTFDSWGQGTLVTVSS,Ctrl,1.46 / 1.07 / 1.08 / 1.17 / 1.36 / 0.96,1.18,0/18